Earlier results, collected in patent publication US20220265830A1, “LONG-ACTING FORMULATIONS AND VEHICLES” (DURECT CORPORATION, priority 2019, published 2022).

Conditions: IM; cited from earlier work

SMILES: C=CCN1CC[C@]23c4c5ccc(O)c4O[C@H]2C(=O)CC[C@@]3(O)[C@H]1C5 [Naloxone]
- Half-life: IM 1.24 hrs
